The text below walks through data of PubChem BioAssay AID1700 (The Scripps Research Institute Molecular Screening Center, 2009).

The list shows a part of the results, in another mix than the full data. The source made the active and inactive calls.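 How the source made its calls: active means inhibition above a per-plate limit of that plate's mean compound inhibition plus 3 SD (cut at about 60% in these data); inactive means the rest.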

The nature of the test: KLF5 expression inhibitors, primary screen, DLD-1 cells, luminescence (AID 1700).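 Further: 0% = DMSO wells and 100% = LY294002 at 200 µM; higher means less KLF5 promoter-driven luciferase light.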 The conditions noted are these: DLD-1 KLF5 promoter-luciferase reporter, at 5 µM, hits give high values. A general note: A reporter such as luciferase makes a cellular process visible.
The term inhibition denotes the drop in the measured response relative to a control, in per cent. For the compound `CCN(CC)CCCOC(=O)C(O)(c1ccccc1)c1ccccc1`, the inhibition is inactive: -20.6%. Then `O=[N+]([O-])c1ccc2c(c1)C=Nc1ccccc1O2`, with inactive: 1.4%; and `Cc1cccc(C)c1OP(C)(N)=O` (stereo unspecified), with inactive: -26.9%. On to `CC(C)(C)c1ccc(OP(C)(=O)Nc2ccc(SC(F)(F)F)cc2)cc1` (stereo unspecified), for which the inhibition was inactive: -5.65%.

For the compound `Cc1cc(C)cc(OP(C)(N)=O)c1` (stereo unspecified), the inhibition is inactive: -36%. As for `COc1ccc(OP(C)(=O)Nc2cccc(F)c2)cc1` (stereo unspecified), the inhibition was inactive: -27.8%.

In the case of `COc1ccccc1OP(C)(=O)Nc1cc(Cl)ccc1C` (stereo unspecified), the inhibition was inactive: 1.88%. Then `Cc1ccc(NP(C)(=O)Oc2ccccc2)c(C)c1` (stereo unspecified), with inactive: 3.53%; and `COc1ccccc1OP(C)(=O)Nc1ccc(C)cc1` (stereo unspecified), with inactive: 2.72%. Then `CCOC(=O)c1ccc(NP(C)(=O)Oc2ccccc2)cc1` (stereo unspecified), with inactive: -12.3%; and `CP(=O)(Nc1ccccc1Br)Oc1ccccc1` (stereo unspecified), with inactive: -18.7%; and `COc1ccccc1OP(C)(=O)Nc1ccccc1` (stereo unspecified), with inactive: -1.7%. For the compound `CP(=S)(Nn1cnnc1)Oc1ccccc1` (stereo unspecified), the inhibition was inactive: 3.82%. Next, `Cc1cc(C)cc(OP(C)(=O)Nc2ccc(SC(F)(F)F)cc2)c1` (stereo unspecified): inactive: -4.09%; `CCc1ccc(OP(C)(=O)N2CCN(c3ccc([N+](=O)[O-])cc3)CC2)cc1` (stereo unspecified): inactive: -1.78%; `CP(=O)(NC(=O)Nc1ccccc1)Oc1ccccc1` (stereo unspecified): inactive: -0.07%.

For `CP(=O)(Oc1ccccc1)OC(c1ccccc1)C(F)(F)F` (stereo unspecified), the inhibition is inactive: 0.21%.

`CP(=O)(Nc1ccc(SC(F)(F)F)cc1)Oc1ccc(Cl)cc1` (stereo unspecified): the inhibition is inactive: -9.44%. Then `Cc1cccc(C)c1OP(C)(=O)Nc1ccc(SC(F)(F)F)cc1` (stereo unspecified), with inactive: -5.58%; and `CP(=O)(Nc1ccccn1)Oc1ccc(Cl)cc1` (stereo unspecified), with inactive: -1.79%.

Turning to `CCOC(=O)c1ccc(NP(C)(=O)Oc2ccc(OC)cc2)cc1` (stereo unspecified), the inhibition was inactive: -14.6%.

Take `CCOP(C)(=S)SCC(=O)NC(C)C(=O)O` (stereo unspecified): the inhibition was inactive: 0.43%. Next, `O=[N+]([O-])c1cc([N+](=O)[O-])c(-n2nnc3ccccc32)c([N+](=O)[O-])c1`: inactive: -23.1%; `Cc1nc2ccc3ccccc3c2s1.O=[N+]([O-])c1cc([N+](=O)[O-])c(O)c([N+](=O)[O-])c1`: inactive: -23.3%. Next, `CCOC(=O)C(CC)C1=NC(C)(C)Cc2ccccc21.O=[N+]([O-])c1cc([N+](=O)[O-])c(O)c([N+](=O)[O-])c1` (stereo unspecified): inactive: -13.9%. Next, `O=[N+]([O-])c1cc([N+](=O)[O-])c(Nc2nnnn2CCO)c([N+](=O)[O-])c1`: inactive: -34.7%; `CP(=O)(Nc1ccc(SC(F)(F)F)cc1)Oc1ccccc1` (stereo unspecified): inactive: -2.14%.

Consider `CCCOc1ccc(NP(C)(=O)Oc2ccc(Cl)cc2)cc1` (stereo unspecified), for which the inhibition is inactive: -8.54%.

Turning to `CN1CCCCC1COC(=O)C1(O)c2ccccc2CCc2ccccc21` (stereo unspecified), the inhibition was inactive: -9.45%.

Turning to `COc1ccccc1OP(C)(=O)Nc1c(C)cccc1C` (stereo unspecified), the inhibition is inactive: -11.7%. Then `O=C(O)c1cccc(Nc2c([N+](=O)[O-])cc([N+](=O)[O-])cc2[N+](=O)[O-])c1`, with inactive: -29.8%. Next, `CC1=NCCc2c1[nH]c1ccccc21.O=[N+]([O-])c1cc([N+](=O)[O-])c(O)c([N+](=O)[O-])c1`: inactive: -6.35%; `CCOC(=O)c1ccc(NP(C)(=O)Oc2cc(C)cc(C)c2)cc1` (stereo unspecified): inactive: 22.7%.

Consider `Cc1cc(C)cc(OP(C)(=O)Nc2ccc(C)cc2C)c1` (stereo unspecified), for which the inhibition was inactive: -0.74%.

Regarding `COc1ccccc1OP(C)(=O)Nc1cccc(Br)c1` (stereo unspecified), the inhibition is inactive: -14.9%. Take `Cc1ccc(C)c(NP(C)(=O)Oc2ccccc2)c1` (stereo unspecified): the inhibition was inactive: -12.3%. For `CP(=O)(Nc1cccc(Br)c1)Oc1ccccc1` (stereo unspecified), the inhibition is inactive: -29.5%.

With `Cc1cc(C)cc(OP(C)(=O)Nc2ccccn2)c1` (stereo unspecified), the inhibition was inactive: -36.5%. As for `CP(=O)(Nc1ccccc1F)Oc1ccccc1` (stereo unspecified), the inhibition is inactive: 13.5%.

In the case of `CC(C)c1ccc(OP(C)(=O)Nc2ccc(SC(F)(F)F)cc2)cc1` (stereo unspecified), the inhibition was inactive: -19.1%. Consider `O=C(OC1CN2CCC1CC2)c1ccc([N+](=O)[O-])cc1` (stereo unspecified), for which the inhibition was inactive: -10.9%. Turning to `O=C(OCCN1CCN(CCOCc2ccccc2)CC1)C(O)(c1ccccc1)c1ccccc1`, the inhibition is inactive: -12.9%. Then `CCOC(=O)c1ccc(NP(C)(=O)Oc2ccc(F)cc2)cc1` (stereo unspecified), with inactive: 10.9%; and `COc1ccc(OP(C)(=O)Nc2ccc(SC(F)(F)F)cc2)cc1` (stereo unspecified), with inactive: 4.51%; and `CP(=O)(Nc1ccccc1)Oc1ccc(F)cc1` (stereo unspecified), with inactive: -6.97%. Then `O=[N+]([O-])c1cc([N+](=O)[O-])c(OC2CCCCC2O)c([N+](=O)[O-])c1` (stereo unspecified), with inactive: -41.7%.

On to `CCCCCOc1ccc(NP(C)(=O)Oc2ccc(Cl)cc2Cl)cc1` (stereo unspecified), for which the inhibition is inactive: -37.6%. Then `CCN(CC)CCCOC(=O)C(O)(c1ccccc1)C1CCCCC1` (stereo unspecified), with inactive: -15.8%; and `CN(C)CCOC(=O)C(O)(c1ccccc1)C1CCCCC1` (stereo unspecified), with inactive: -41.8%; and `COc1ccc(NP(C)(=O)Oc2ccccc2OC)cc1` (stereo unspecified), with inactive: -1.23%.

Take `COc1ccc(OP(C)(=O)Nc2cccc(Br)c2)cc1` (stereo unspecified): the inhibition was inactive: -4.29%. Consider `O=[N+]([O-])c1ccc(OP2(=O)COCCO2)cc1` (stereo unspecified), for which the inhibition was inactive: -12.3%. For the compound `Cc1cc(-c2cccc3ccccc23)c(C)cn1.O=[N+]([O-])c1cc([N+](=O)[O-])c(O)c([N+](=O)[O-])c1`, the inhibition was inactive: -20.5%. Next, `O=[N+]([O-])c1cc([N+](=O)[O-])c(NCC2CCS(=O)(=O)C2)c([N+](=O)[O-])c1` (stereo unspecified): inactive: -19.7%. Next, `CCOP(C)(=S)SCC(=O)NC(C)(CC)C(=O)O` (stereo unspecified): inactive: -40.4%; `CP(=O)(Nc1ccc(SC(F)(F)F)cc1)Oc1ccc(F)cc1` (stereo unspecified): inactive: -8.42%; `Cc1ccccc1NP(C)(=O)Nc1ccccc1C`: inactive: -10.2%.

Turning to `CP(=O)(Nc1ccc2c(c1)OCCO2)Oc1ccccc1` (stereo unspecified), the inhibition is inactive: -12.2%. On to `O=C(OCCCN1CCCC1)C(O)(c1ccccc1)C1CCCCC1` (stereo unspecified), for which the inhibition is inactive: -22.1%.

For the compound `COc1ccccc1OP(C)(=O)Nc1c(C)n(C)n(-c2ccccc2)c1=O` (stereo unspecified), the inhibition was inactive: -29.4%. Turning to `CCc1ccc(OP(C)(=O)Nc2cccnc2)cc1` (stereo unspecified), the inhibition was inactive: -12%.
